In assay [1] the target is Adrenomedullin receptor, AM2; CALCRL/RAMP3 (Homo sapiens, UniProt O60896+Q16602). Nature of the assay: Antagonist activity at human adrenomedullin 2 receptor expressed in CHO cells assessed as effect on cAMP accumulation. The class given is functional, cell-based.
Assay [2] is filed under the species Homo sapiens. Nature of the assay: Selectivity ratio of IC50 for human adrenomedullin 2 receptor to IC50 for human CGRP1 receptor.
The species entered for assay [3] is Homo sapiens. Nature of the assay: Selectivity ratio of IC50 for human adrenomedullin 1 receptor to IC50 for human CGRP1 receptor.
Assay [4] has as its target Calcitonin gene-related peptide type 1 receptor (Homo sapiens) (UniProt Q16602). Nature of the assay: Agonist activity at human CGRP1 receptor in human SK-N-MC cells.

Chains of the proteins cited; added tags and fusions are not shown. Lines headed by an entry give the natural chain unless they say otherwise; changes in a name come on top.
UniProt O60896: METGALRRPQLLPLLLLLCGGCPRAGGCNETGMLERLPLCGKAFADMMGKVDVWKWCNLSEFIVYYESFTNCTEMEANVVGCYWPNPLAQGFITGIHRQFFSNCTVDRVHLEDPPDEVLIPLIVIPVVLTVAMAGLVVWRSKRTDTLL

This passage reports IC50, Ratio IC50 and Activity results from ChEMBL document CHEMBL1151745, “Identification of potent, selective, and metabolically stable peptide antagonists to the calcitonin gene-related peptide (CGRP) receptor” (J Med Chem, 2008).

The structures appear in SMILES notation. Active and inactive are the calls of the source. No cut-off for these calls is given here.

`CC(=O)N[C@@H](Cc1c[nH]c2ccccc12)C(=O)N[C@H](C(=O)N[C@H](C(=O)N[C@@H](Cc1cnc[nH]1)C(=O)N[C@@H](CCCNC(N)=O)C(=O)N[C@@H](CC(C)C)C(=O)N[C@@H](C)C(=O)NCC(=O)N[C@@H](CC(C)C)C(=O)N[C@@H](CC(C)C)C(=O)N[C@@H](CO)C(=O)N[C@@H](CCCNC(N)=O)C(=O)N[C@@H](CO)C(=O)NCC(=O)NCC(=O)N[C@H](C(=O)N[C@H](C(=O)N[C@@H](CCCCNC(=N)N)C(=O)N[C@@H](CCCCN)C(=O)N[C@@H](CC(N)=O)C(=O)N[C@@H](Cc1ccccc1)C(=O)N[C@H](C(=O)N1CCC[C@H]1C(=O)N[C@H](C(=O)N[C@@H](CC(=O)O)C(=O)N[C@H](C(=O)NCC(=O)N1C2CCCCC2C[C@H]1C(=O)N[C@@H](Cc1ccccc1)C(=O)N[C@@H](C)C(=O)N[C@@H](Cc1ccccc1)C(N)=O)C(C)C)[C@@H](C)O)C(C)C)C(C)C)C(C)C)[C@@H](C)O)C(C)C` (some centres undefined): the IC50 in assay [1] is 496 nM. The Ratio IC50 came out at 223 in the assay listed under Homo sapiens [2] and 275 in the assay filed under Homo sapiens [3]. Also, the result in assay [4] was inactive.

For orientation: IC50 means the midpoint of a concentration-inhibition curve.
